Experimental data: patent US6525059B1, “Substituted pyrazoles as p38 kinase inhibitors” (G. D. Searle & Company, priority 1998, dated 2003)

Sequences of proteins named here, by UniProt entry; tags and fusion partners are left off.
UniProt Q16539, whole entry: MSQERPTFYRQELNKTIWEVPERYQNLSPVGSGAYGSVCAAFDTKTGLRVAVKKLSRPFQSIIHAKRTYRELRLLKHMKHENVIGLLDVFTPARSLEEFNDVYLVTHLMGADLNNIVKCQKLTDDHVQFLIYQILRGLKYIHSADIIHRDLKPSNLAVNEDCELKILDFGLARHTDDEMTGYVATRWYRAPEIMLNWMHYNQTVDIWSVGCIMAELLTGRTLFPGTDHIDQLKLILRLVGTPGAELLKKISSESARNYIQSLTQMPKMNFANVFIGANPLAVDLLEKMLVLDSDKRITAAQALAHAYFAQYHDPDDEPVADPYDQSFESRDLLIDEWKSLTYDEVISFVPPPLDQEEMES

Key:
[1] = molecular target: T1, human p38 kinase alpha (Homo sapiens, UniProt Q16539); experiment: p38 kinase in vitro assay, phosphorylation of biotinylated PHAS-I with gamma 32P-ATP; format: biochemical
T1 construct: The coding region of the human p38a cDNA was obtained by PCR-amplification from RNA isolated from the human monocyte cell line THP.1; GST (N); made in house; host or cells: E. coli DH10B
Experimental: The ability of compounds to inhibit human p38 kinase alpha was evaluated using two in vitro assay methods. In the first method activated human p38 kinase alpha phosphorylates a biotinylated substrate, PHAS-I (phosphorylated heat and acid stable protein-insulin inducible), in the presence of gamma ^32P-ATP (^32P-ATP). PHAS-I was biotinylated prior to the assay and provides a means of capturing the substrate which is phosphorylated during the assay. p38 Kinase was activated by MKK6. Compounds were tested in 10 fold serial dilutions over the range of 100 μM to 0.001 μM using 1% DMSO. Each concentration of inhibitor was tested in triplicate.
All reactions were carried out in 96 well polypropylene plates. Each reaction well contained 25 mM HEPES pH 7.5, 10 mM magnesium acetate and 50 μM unlabeled ATP. […] The reaction proceeded either for one hour or overnight at 30° C.
Following incubation, 20 μl of reaction mixture was transferred to a high capacity streptavidin coated filter plate (SAM-streptavidin-matrix, Promega) prewetted with phosphate buffered saline. […] Filter plates were air dried and 20 μl of scintillant was added. The plates were sealed and counted.

[2] = molecular target: T2, human GST-p38 kinase alpha (Homo sapiens, UniProt Q16539); experiment: p38 kinase in vitro assay, second format, phosphorylation of EGFRP with 33P-ATP; format: biochemical; conditions: Table 8, 10% DMSO; read-out: p38α Kinase Assay IC50
T2 construct: The coding region of the human p38a cDNA was obtained by PCR-amplification from RNA isolated from the human monocyte cell line THP.1; made in house; host or cells: E. coli DH10B
Experimental: A second assay format was also employed that is based on p38 kinase alpha induced phosphorylation of EGFRP (epidermal growth factor receptor peptide, a 21 mer) in the presence of ^33P-ATP. Compounds were tested in 10 fold serial dilutions over the range of 100 μM to 0.001 μM in 10% DMSO. Each concentration of inhibitor was tested in triplicate. Compounds were evaluated in 50 μl reaction volumes in the presence of 25 mM Hepes pH 7.5, 10 mM magnesium acetate, 4% glycerol, 0.4% bovine serum albumin, 0.4 mM DTT, 50 μM unlabeled ATP, 25 μg EGFRP (200 μM), and 0.05 uCi gamma ^33P-ATP. Reactions were initiated by addition of 0.09 μg of activated, purified human GST-p38 kinase alpha. Activation was carried out using GST-MKK6 (5:1, p38: MKK6) for one hour at 30° C. in the presence of 50 μM ATP. Following incubation for 60 minutes at room temperature, the reaction was stopped by addition of 150 μl of AG 1×8 resin in 900 mM sodium formate buffer, pH 3.0 (1 volume resin to 2 volumes buffer). The mixture was mixed three times with pipetting and the resin was allowed to settle. A total of 50 μl of clarified solution head volume was transferred from the reaction wells to Microlite-2 plates. 150 μl of Microscint 40 was then added to each well of the Microlite plate, and the plate was sealed, mixed, and counted.

| IC50 [1] | SMILES | IC50 [2] |
| --- | --- | --- |
| 0.26 µM | C[C@@H](NC(=O)c1cccc2ccccc12)c1[nH]nc(-c2ccc(F)cc2)c1-c1ccncc1 [Example B-0500] | – |
| – | CC1CN(c2[nH]nc(-c3ccc(Cl)cc3)c2-c2ccncc2)CC(C)N1 (centres unmarked) [Example A-342, 1-[5-(4-chlorophenyl)-4-(4-pyridinyl)-1H-pyrazol-3-yl]-3,5-dimethylpiperazine] | 0.012 µM |
